Structures are written as SMILES. The list shows a part of the results, in another mix than the full data. Inconclusive results are not listed. Activity calls are given as the source filed them. The rule behind the calls is not given here; tested in MIN6 cells.

The nature of the assay: GFP-wavelength compound autofluorescence in cells – imaging, high-content imaging, artefact control, dose response (AID 2124).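 Note: cells exposed to compound for 48 hours before fixing.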 The settings on record: GFP-channel autofluorescence, at 10 µM, active compounds read high.

Take `CP(=O)(Nc1cccc(Br)c1)Oc1ccccc1` (stereo unspecified): the z-score is inactive: -0.38.

(Values after PubChem BioAssay AID2124 (Sanford-Burnham Center for Chemical Genomics, 2009).)
